Measurements: published antibiotic growth screens (doi:10.1038/s41589-023-01349-8)
This is one part of the list.

tested on: A. baumannii ATCC 17978; assay: relative growth (fraction of control); higher = less inhibition; conditions: 50 µM

Row | Structure (SMILES) | relative growth
1 | Cn1c(=O)c2[nH]c(-[n+]3ccc(C(=O)O)cc3)nc2n(C)c1=O | 1.02
2 | CN(C)S(=O)(=O)N(C)c1ccccc1 | 1.15
3 | O=C(C[C@H]1CC[C@H]2[C@@H](COC[C@@H](O)CN2C(=O)Nc2ccc(Cl)cc2)O1)NCCc1ccncc1 | 0.987
4 | CC(C)[C@H](N)C(=O)OCC(CO)OCn1cnc2c(=O)[nH]c(N)nc21.Cl (stereo partly drawn) | 0.889
5 | CCOc1ccc2ccccc2c1C(=O)N[C@@H]1C(=O)N2C(C(=O)[O-])C(C)(C)S[C@H]12.[Na+] (stereo partly drawn) | 0.418
6 | COC(=O)C1=C2CC[C@H](COC(=O)NCCCCCC(=O)NO)NC(=O)N[C@@H](Cc3ccccc3)c3cn(nn3)C[C@@H](Cc3ccccc3)NC(=O)c3oc(c(C(=O)OC)c3C(=O)OC)CC[C@H](COC(=O)NCCCCCC(=O)NO)NC(=O)N[C@@H](Cc3ccccc3)c3cn(nn3)C[C@@H](Cc3ccccc3)NC(=O)C(=C1C(=O)OC)O2 | 1
7 | O=C(C[C@@H]1CC[C@@H](NS(=O)(=O)c2ccccc2F)[C@H](CO)O1)NCCCN1CCOCC1 | 0.969
8 | Cl.Cl.NCCSSCCN | 1.04
9 | CC(C)C[C@@H]1NC(=O)[C@@H]2C[C@H](C(=O)NCCCCCNC(=O)CS)[C@H](c3ccc(O)cc3)N2C1=O | 0.923
10 | COc1cc2c(cc1OC)Cc1cc(OC)c(OC)cc1Cc1cc(OC)c(OC)cc1C2 | 0.974
11 | CC(C)=CCC/C(C)=C\CC1=C(C)C(=O)c2ccccc2C1=O | 1.05
12 | O=C(N[C@H]1C=C[C@H](CC(=O)N2CCOCC2)O[C@H]1CO)c1ccccn1 | 0.899
13 | COCCc1ccc(OCC(O)CNC(C)C)cc1.O=C(O)C(O)C(O)C(=O)O (stereo not drawn) | 1.05
14 | O=C(C[C@@H]1CC[C@@H]2[C@H](COC[C@H](O)CN2C(=O)Nc2ccc3c(c2)OCO3)O1)N1CCN(c2ccccc2)CC1 | 1.08
15 | NCC[C@H]1CC[C@@H](NC(=O)C2CC2)[C@@H](CO)O1 | 1.01
16 | COC1C=CC23c4cc5c(cc4CN(C[C@H]2O)[C@@H]3C1)OCO5 (stereo partly drawn) | 1.13
17 | CC(=O)OCCn1c(=O)[nH]c(=O)c2nsnc21 | 0.908
18 | COCC#Cc1cnc2c(c1)C(=O)N([C@H](C)CO)C[C@H](C)[C@@H](CN(C)S(=O)(=O)c1cn(C)cn1)O2 | 0.981
19 | COCC#Cc1ccc2c(c1)O[C@H](CN(C)C(=O)COC)[C@H](C)CN([C@@H](C)CO)S2(=O)=O | 1.05
20 | O=C(C[C@@H]1CC[C@@H]2[C@H](COC[C@H](O)CN2C(=O)c2cnccn2)O1)NCc1ccc(Oc2ccccc2)cc1 | 0.827
21 | CC(COc1ccccc1)N(CCCl)Cc1ccccc1.Cl (stereo not drawn) | 0.927

Row | Structure (SMILES) | relative growth
22 | Cc1oc(=O)oc1CN1CCN(c2cc3c(cc2F)c(=O)c(C(=O)O)c2n3C(C)S2)CC1 (stereo not drawn) | 0.144
23 | O=C(O)CCN1C(=O)[C@@H]2[C@@H](C1=O)[C@@H]1C=C[C@@H]2C1 | 0.91
24 | COCC(=O)Nc1ccc2c(c1)OC[C@@H](C)N(Cc1cccc(F)c1)C[C@@H](C)[C@@H](OC)CN(C)C2=O | 1.1
25 | C[C@H](CO)N1C[C@H](C)[C@H](CN(C)Cc2cncnc2)Oc2cc(-c3ccccc3F)ccc2S1(=O)=O | 0.914
26 | C/C=C\C1=C(C(=O)O)N2C(=O)C(NC(=O)C(N)c3ccc(O)cc3)C2SC1 (stereo not drawn) | 1.08
27 | CCC(CC)C(=O)N1c2ccccc2Sc2ccccc21 | 0.737
28 | O=C(C[C@H]1C=C[C@H](NC(=O)C2CC2)[C@H](CO)O1)NCCCN1CCOCC1 | 0.94
29 | NCC[C@H]1CC[C@H](NC(=O)C2CC2)[C@@H](CO)O1 | 0.998
30 | CC(=O)OCC(=O)[C@@]12OC3(CCCC3)O[C@@H]1C[C@H]1[C@@H]3CCC4=CC(=O)C=C[C@]4(C)[C@@]3(F)[C@@H](O)C[C@@]12C | 1.09
31 | Cc1ccc(S(=O)(=O)N[C@H]2CC[C@H](CCNC(=O)CN3CCOCC3)O[C@@H]2CO)cc1 | 1.03
32 | O=C(C[C@H]1C[C@H]2c3cc(NS(=O)(=O)c4ccc(F)cc4)ccc3O[C@H]2[C@@H](CO)O1)NC1CCCC1 | 1.02
33 | Clc1ccc(CO/N=C(\Cn2ccnc2)c2ccc(Cl)cc2Cl)c(Cl)c1.O=[N+]([O-])O | 0.922
34 | COc1ccccc1OC[C@@H](O)CO | 1.01
35 | CC(C)C[N+]1(C)Cc2ccccc2C1 | 0.939
36 | C[C@H]1CN([C@@H](C)CO)S(=O)(=O)c2ccc(C#Cc3ccccc3F)cc2O[C@H]1CN(C)CC1CC1 | 0.792
37 | CCCNCC(O)COc1ccccc1C(=O)CCc1ccccc1.Cl (stereo not drawn) | 0.884
38 | CC(=O)NCCCC[C@@H]1NC(=O)[C@H]2C[C@@H](C(=O)NCCCC[N+](C)(C)C)[C@@H](c3cccc(OCCO)c3)N2C1=O | 0.938
39 | CCn1cc(C(=O)O)c(=O)c2cc(F)c(N3CCN(C)CC3)cc21.CS(=O)(=O)O | 0.141
40 | Cl.N#Cc1ccc2[nH]cc(CCCCN3CCN(c4ccc5oc(C(N)=O)cc5c4)CC3)c2c1 | 0.914
41 | Nc1nc(=O)[nH]cc1Br | 0.903
42 | CC(C)CNC(=O)[C@@H]1c2ccccc2C(=O)N(Cc2ccccc2C(F)(F)F)[C@H]1c1ccc(CO)cc1 | 0.857

Row | Structure (SMILES) | relative growth
43 | O=C(C[C@H]1C=C[C@@H](NC(=O)CN2CCOCC2)[C@@H](CO)O1)NCc1cccc(F)c1 | 0.904
44 | COCCOC(=O)N1C(=O)[C@@]2(c3cc(C#CC4=CCCCC4)ccc31)[C@H](c1ccccc1OCCO)N1[C@H](c3ccccc3)[C@H](c3ccccc3)OC(=O)[C@H]1[C@@H]2C(=O)N1CCCCCCC1 | 1.18
45 | CCOC(=O)CC1=NNC(=N)SC1 | 0.96
46 | O=C(NCC[C@@H]1CC[C@H](NS(=O)(=O)c2cccc(F)c2)[C@@H](CO)O1)C1CC1 | 1.08
47 | Cc1ccc(S[C@]2(C(=O)O)CC(=O)N(Cc3ccccc3C(F)(F)F)[C@@H]2c2ccc(CO)cc2)cc1 | 0.883
48 | Cc1nc(CSCc2ccc(Cl)cc2Cl)cs1 | 0.946
49 | O=C(C[C@@H]1C[C@@H]2c3cc(NS(=O)(=O)c4ccc(F)cc4)ccc3O[C@@H]2[C@@H](CO)O1)NCc1ccccc1 | 0.866
50 | CO[C@H]1CN(C)C(=O)c2cc(NS(C)(=O)=O)ccc2OC[C@@H](C)N(C(=O)c2ccc3c(c2)OCO3)C[C@@H]1C | 0.867
51 | C[C@@H]1CN([C@@H](C)CO)C(=O)c2cc(C#Cc3ccccc3F)cnc2O[C@H]1CN(C)S(=O)(=O)c1ccccc1 | 0.97
52 | NCc1ccccc1 | 0.854
53 | COc1c(O)cc(O)cc1O | 0.918
54 | Cc1ccc(S(=O)(=O)N[C@@H](Cc2ccccc2)C(=O)NCCCn2cc(CCC(=O)NO)nn2)cc1 | 0.955
55 | CN1CCN(C(=O)C[C@@H]2CC[C@@H](NC(=O)Cc3ccccn3)[C@@H](CO)O2)CC1 | 0.934
56 | COCCOC(=O)N1C(=O)[C@@]2(c3cc(C#CC4=CCCCC4)ccc31)[C@H](C(=O)N1CCN(c3ncccn3)CC1)[C@H]1C(=O)O[C@H](c3ccccc3)[C@H](c3ccccc3)N1[C@@H]2c1ccc(O)cc1 | 0.97
57 | COc1ccc(NC(=O)N[C@H]2CC[C@@H](CCNC(=O)CN3CCOCC3)O[C@H]2CO)cc1 | 1.02
58 | O=C(CCCCCC(=O)N/N=C/[C@@H](O)[C@H](O)[C@H](O)CO)NO | 0.936
59 | CCc1cn([C@H]2C[C@@H](O)[C@@H](CO)O2)c(=O)[nH]c1=O | 1.16
60 | CN(C)CCCN1c2ccccc2Sc2ccccc21.Cl | 0.96
61 | COc1cccc(C#Cc2ccc3c(c2)O[C@@H](CN(C)C(=O)CN2CCOCC2)[C@@H](C)CN([C@@H](C)CO)S3(=O)=O)c1 | 0.64
62 | CC(C)(C)[C@H]1COC(=O)[C@@H](NC(=O)OCC2c3ccccc3-c3ccccc32)CC=CC[C@H](CC(=O)N(CCO)Cc2ccccc2)C(=O)N1 | 1.16
63 | S=c1[nH]nc(C2CCCCC2)[nH]1 | 1.07

Row | Structure (SMILES) | relative growth
64 | COc1cccc(NC(=O)N(C)C[C@@H]2Oc3cc(C#CC4(O)CCCC4)ccc3S(=O)(=O)N([C@H](C)CO)C[C@@H]2C)c1 | 1.07
65 | Nc1nnc(-c2cccc(Cl)c2Cl)c(N)n1 | 1.05
66 | Cc1noc(C)c1NC(=O)N[C@@H]1C=C[C@H](CC(=O)NCCCN(C)C)O[C@@H]1CO | 1.03
67 | c1ccc(-c2nc(C34CC5CC(CC(C5)C3)C4)cs2)cc1 | 0.893
68 | C[C@H]1CN([C@@H](C)CO)S(=O)(=O)c2ccc(C3=CCCC3)cc2O[C@H]1CN(C)C(=O)c1cnccn1 | 0.997
69 | CN1CCCC(n2nc(Cc3ccc(Cl)cc3)c3ccccc3c2=O)CC1.Cl (stereo not drawn) | 0.928
70 | CN1CCN(C(=O)C[C@@H]2CC[C@H]3[C@@H](COC[C@@H](O)CN3Cc3ccc4c(c3)OCO4)O2)CC1 | 0.92
71 | NC(=S)c1ccc(-n2cncn2)nc1 | 1.07
72 | O=C(O)c1cnc[nH]1 | 1.02
73 | O=C(O)/C=C(\CC(=O)O)C(=O)O | 1.06
74 | Nc1nc(=O)[nH]cc1F | 0.987
75 | CN1C(=O)[C@@H]2[C@@H]3C[C@H]4[C@@H](O[C@H]1[C@H]42)[C@H]3O | 1.11
76 | CC1(C)S[C@@H]2[C@H](NC(=O)[C@H](C(=O)[O-])c3ccsc3)C(=O)N2[C@H]1C(=O)[O-].[Na+].[Na+] | 1.04
77 | COCCNC(=O)C[C@H]1C[C@@H]2c3cc(NC(=O)COC)ccc3O[C@@H]2[C@H](CO)O1 | 1.16
78 | C=C1CC[C@H](O)C/C1=C/C=C1\CCC[C@]2(C)C([C@H](C)/C=C/[C@H](C)C(C)C)CC[C@@H]12 (stereo partly drawn) | 1.29
79 | C[C@H](NC(=O)C[C@H]1C=C[C@H](NC(=O)CN2CCOCC2)[C@@H](CO)O1)c1ccccc1 | 1.17
80 | CN(C)CC(=O)N[C@@H]1C=C[C@@H](CC(=O)O)O[C@@H]1CO | 1.01
81 | CC(C)(O/N=C(\C(=O)N[C@@H]1C(=O)N2C(C(=O)[O-])=C(C[n+]3ccccc3)CSC12)c1csc(N)n1)C(=O)O (stereo partly drawn) | 0.937
82 | CC(C)NC(=O)N[C@@H]1CC[C@H](CCN)O[C@H]1CO | 1.02
83 | CN(C)C(=O)c1cccc(-c2cccc(-c3nc(C(=O)N4CCCCC4)cc4c3[C@H](CCO)N([S@@](=O)C(C)(C)C)C4)c2)c1 | 1.13
